This is an account of results in ChEMBL document CHEMBL1221311, “The synthesis and structure-activity relationship of 4-benzimidazolyl-piperidinylcarbonyl-piperidine analogs as histamine H3 antagonists” (Bioorg Med Chem Lett, 2010).

Protein sequences, listed by entry. Tags and fused reporters are not part of them. Lines headed by an entry give the natural chain unless they say otherwise; changes in a name come on top.
UniProt Q9JI35: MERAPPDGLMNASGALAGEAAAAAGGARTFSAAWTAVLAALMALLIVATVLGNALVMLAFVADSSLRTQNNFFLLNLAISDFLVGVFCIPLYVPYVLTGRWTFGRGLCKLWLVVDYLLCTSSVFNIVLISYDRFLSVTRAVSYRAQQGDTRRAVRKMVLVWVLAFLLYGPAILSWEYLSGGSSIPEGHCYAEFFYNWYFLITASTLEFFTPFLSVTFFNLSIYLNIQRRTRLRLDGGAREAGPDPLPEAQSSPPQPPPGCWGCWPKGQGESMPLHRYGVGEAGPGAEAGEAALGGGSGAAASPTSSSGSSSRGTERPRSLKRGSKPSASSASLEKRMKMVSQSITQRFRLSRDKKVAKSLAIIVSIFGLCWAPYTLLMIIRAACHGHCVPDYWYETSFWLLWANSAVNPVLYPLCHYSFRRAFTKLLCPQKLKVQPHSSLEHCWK

The first experiment concerns the target T1, Histamine H3 receptor (Cavia porcellus, UniProt Q9JI35). The experiment can be described thus: Displacement of [3H]Nalpha-methylhistamine from histamine H3 receptor in guinea pig brain.
What is called Ki is the dissociation constant of the complex between target and ligand, obtained from inhibition or displacement. Higher therefore signals lower affinity. Take `CN(C)CCCn1c(=O)n(C2CCN(C(=O)C3CCN(Cc4ccncc4)CC3)CC2)c2ccccc21`: the inhibition constant (Ki) is 0.2 nM.

In the next experiment the target is T1, Histamine H3 receptor. The experiment can be described thus: Antagonist activity at histamine H3 receptor in electrically-stimulated guinea pig ileum.
The pA2 is the negative logarithm of the molar antagonist concentration that doubles the agonist concentration needed for the same response. A lower pA2 goes with a weaker antagonist. For `O=C(C1CCN(Cc2ccncc2)CC1)N1CCC(n2c(=O)n(CCN3CCOCC3)c3ccccc32)CC1`, the pA2 came out at 9.1.

`CCOCCCn1c(=O)n(C2CCN(C(=O)C3CCN(Cc4ccncc4)CC3)CC2)c2ccccc21` gave a pA2 of 8.5.

Regarding `CC(C)OCCn1c(=O)n(C2CCN(C(=O)C3CCN(Cc4ccncc4)CC3)CC2)c2ccccc21`, the pA2 was 9.3.

`CCOCCn1c(=O)n(C2CCN(C(=O)C3CCN(Cc4ccncc4)CC3)CC2)c2ccccc21` gave a pA2 of 8.7.

Take `O=C(C1CCN(Cc2ccncc2)CC1)N1CCC(n2c(=O)n(Cc3ccccc3)c3ccccc32)CC1`: the pA2 is 8.9.

Consider `O=C(C1CCN(Cc2ccncc2)CC1)N1CCC(n2c(=O)n(CCOc3ccccc3)c3ccccc32)CC1`, for which the pA2 is 9.1.

Consider `Cn1c(=O)n(C2CCN(C(=O)C3CCN(Cc4ccncc4)CC3)CC2)c2ccccc21`, for which the pA2 was 8.3.

As to `CN(C)CCCn1c(=O)n(C2CCN(C(=O)C3CCN(Cc4ccncc4)CC3)CC2)c2ccccc21`, the pA2 amounted to 9.7.

With `O=C(C1CCN(Cc2ccncc2)CC1)N1CCC(n2c(=O)[nH]c3ccccc32)CC1`, the pA2 came to 8.1.

`O=C(C1CCN(Cc2ccncc2)CC1)N1CCC(n2c(=O)n(CCN3CCCCC3)c3ccccc32)CC1` came in with a pA2 of 8.9.

Consider `COCCn1c(=O)n(C2CCN(C(=O)C3CCN(Cc4ccncc4)CC3)CC2)c2ccccc21`, for which the pA2 amounted to 8.8.

The molecule `O=C(C1CCN(Cc2ccncc2)CC1)N1CCC(n2c(=O)n(CCO)c3ccccc32)CC1` returned a pA2 of 8.2.

Regarding `CN(C)CCn1c(=O)n(C2CCN(C(=O)C3CCN(Cc4ccncc4)CC3)CC2)c2ccccc21`, the pA2 was 9.3.
